In assay [1] the target is T1, CML100C (HDA3 complex subunit; CML100C-TF) (Cyanidioschyzon merolae, UniProt M1VD99).
T1 construct: gene CYME_CML100C
As to the kind of experiment: UV-visible difference absorbance titration at […] nm, one-site fit. It is filed as binding.

By UniProt entry, the sequences of proteins in these tests, tags left out. Residues count along the entry.
UniProt M1VD99, 1-561: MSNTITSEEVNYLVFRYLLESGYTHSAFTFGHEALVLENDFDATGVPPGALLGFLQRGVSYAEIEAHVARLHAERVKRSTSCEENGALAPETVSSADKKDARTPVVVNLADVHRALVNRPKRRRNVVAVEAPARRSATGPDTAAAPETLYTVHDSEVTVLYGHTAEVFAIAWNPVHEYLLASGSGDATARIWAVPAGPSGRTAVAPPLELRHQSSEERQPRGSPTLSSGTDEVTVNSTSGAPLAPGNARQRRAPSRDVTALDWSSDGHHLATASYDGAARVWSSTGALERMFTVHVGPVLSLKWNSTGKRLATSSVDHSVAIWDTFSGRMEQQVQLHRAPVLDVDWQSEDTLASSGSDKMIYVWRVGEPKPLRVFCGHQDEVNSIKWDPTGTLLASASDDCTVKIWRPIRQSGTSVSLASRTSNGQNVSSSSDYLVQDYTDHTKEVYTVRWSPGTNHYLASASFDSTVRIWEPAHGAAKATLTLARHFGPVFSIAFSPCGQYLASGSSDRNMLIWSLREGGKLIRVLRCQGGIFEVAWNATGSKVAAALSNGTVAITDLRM

Assay [2] addresses T2, SRT1 (At5g55760), NAD-dependent protein deacetylase SRT1 (Arabidopsis thaliana, UniProt Q9FE17).
T2 construct: full-length cDNA in pET24, N-terminal His-tag kept, E. coli BL21(DE3), 52 kDa
T2 sequence (Q9FE17 1-473): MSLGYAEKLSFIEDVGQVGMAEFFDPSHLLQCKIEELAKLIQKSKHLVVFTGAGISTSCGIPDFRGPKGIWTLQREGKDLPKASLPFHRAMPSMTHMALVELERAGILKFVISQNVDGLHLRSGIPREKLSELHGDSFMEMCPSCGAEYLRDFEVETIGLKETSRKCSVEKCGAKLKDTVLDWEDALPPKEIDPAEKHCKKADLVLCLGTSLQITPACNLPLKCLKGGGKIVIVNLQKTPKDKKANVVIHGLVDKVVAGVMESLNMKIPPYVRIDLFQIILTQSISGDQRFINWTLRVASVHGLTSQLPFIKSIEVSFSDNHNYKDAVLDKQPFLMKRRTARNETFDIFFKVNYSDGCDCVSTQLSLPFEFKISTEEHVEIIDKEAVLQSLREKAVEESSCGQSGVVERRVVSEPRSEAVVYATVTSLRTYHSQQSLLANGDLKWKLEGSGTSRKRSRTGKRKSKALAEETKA
Described as above. The format is binding.

For the compound `C=CC1=C(C)C2=Cc3c(C=C)c(C)c4[n]3[Fe]([Cl])[n]3c(c(C)c(CCC(=O)O)c3=CC3=NC(=C4)C(C)=C3CCC(=O)O)=CC1=N2` [haemin], the Kd came out at 1330 ± 250 nM in assay [1] and 680 ± 400 nM in assay [2].
